{
  "source": "patent US20250155427A1",
  "about": "“CELLS […] TASTE RECEPTORS AND USES THEREOF” (Firmenich Incorporated, priority 2022, published 2025)",
  "biological_target": "T1, human T1R1, a rat-human T1R3 chimera, and the promiscuous G-protein G16gust25 (UniProt Q7RTX1+Q923K1, A568E/A645S/A698V/A702T/A793V/A807V/C582S/C678S/E725V/E827G/F612A/F622V/F805L/I617V/I740A/I779T/I803L/K818R/L735F/L823M/L825Q/M644L/M706V/M729T/N675D/Q717H/Q757R/Q795R/Q831P/R632Q/R634S/S576L/S610P/S635P/S637R/S679G/T588V/T694M/T813A/V584A/V718M/V723A/V738A/V744T/V821L/W599R/W676R/W824R/Y598H/Y680C/Y794L)",
  "T1 sequence (Q7RTX1 21-841)": "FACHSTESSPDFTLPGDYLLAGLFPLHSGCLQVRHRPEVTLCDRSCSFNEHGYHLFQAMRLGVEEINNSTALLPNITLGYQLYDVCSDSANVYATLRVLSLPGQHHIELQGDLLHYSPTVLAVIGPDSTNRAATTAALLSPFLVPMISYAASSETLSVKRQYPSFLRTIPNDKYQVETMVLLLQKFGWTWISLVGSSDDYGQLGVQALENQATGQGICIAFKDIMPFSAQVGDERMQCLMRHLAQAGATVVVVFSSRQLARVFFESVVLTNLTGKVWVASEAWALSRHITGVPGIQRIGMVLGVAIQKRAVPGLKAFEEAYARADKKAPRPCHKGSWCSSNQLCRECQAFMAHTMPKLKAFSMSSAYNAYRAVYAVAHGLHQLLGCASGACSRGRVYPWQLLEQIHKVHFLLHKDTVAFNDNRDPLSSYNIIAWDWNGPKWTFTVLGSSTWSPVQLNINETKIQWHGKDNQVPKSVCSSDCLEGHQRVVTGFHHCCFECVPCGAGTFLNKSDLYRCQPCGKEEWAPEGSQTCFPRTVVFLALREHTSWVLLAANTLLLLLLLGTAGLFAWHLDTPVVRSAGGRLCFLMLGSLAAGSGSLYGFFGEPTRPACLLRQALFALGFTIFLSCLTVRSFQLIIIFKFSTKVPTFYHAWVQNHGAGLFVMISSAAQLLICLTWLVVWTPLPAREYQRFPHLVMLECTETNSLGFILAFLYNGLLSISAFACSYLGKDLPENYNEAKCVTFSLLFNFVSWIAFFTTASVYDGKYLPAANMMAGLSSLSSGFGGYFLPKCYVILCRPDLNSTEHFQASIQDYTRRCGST",
  "T1 sequence (Q923K1 with tags, fused parts or gaps A568E/S576L/C582S/V584A/T588V/Y598H/W599R/S610P/F612A/I617V/F622V/R632Q/R634S/S635P/S637R/M644L/A645S/N675D/W676R/C678S/S679G/Y680C/T694M/A698V/A702T/M706V/Q717H/V718M/V723A/E725V/M729T/L735F/V738A/I740A/V744T/Q757R/I779T/A793V/Y794L/Q795R/I803L/F805L/A807V/T813A/K818R/V821L/L823M/W824R/L825Q/E827G/Q831P limits assumed)": "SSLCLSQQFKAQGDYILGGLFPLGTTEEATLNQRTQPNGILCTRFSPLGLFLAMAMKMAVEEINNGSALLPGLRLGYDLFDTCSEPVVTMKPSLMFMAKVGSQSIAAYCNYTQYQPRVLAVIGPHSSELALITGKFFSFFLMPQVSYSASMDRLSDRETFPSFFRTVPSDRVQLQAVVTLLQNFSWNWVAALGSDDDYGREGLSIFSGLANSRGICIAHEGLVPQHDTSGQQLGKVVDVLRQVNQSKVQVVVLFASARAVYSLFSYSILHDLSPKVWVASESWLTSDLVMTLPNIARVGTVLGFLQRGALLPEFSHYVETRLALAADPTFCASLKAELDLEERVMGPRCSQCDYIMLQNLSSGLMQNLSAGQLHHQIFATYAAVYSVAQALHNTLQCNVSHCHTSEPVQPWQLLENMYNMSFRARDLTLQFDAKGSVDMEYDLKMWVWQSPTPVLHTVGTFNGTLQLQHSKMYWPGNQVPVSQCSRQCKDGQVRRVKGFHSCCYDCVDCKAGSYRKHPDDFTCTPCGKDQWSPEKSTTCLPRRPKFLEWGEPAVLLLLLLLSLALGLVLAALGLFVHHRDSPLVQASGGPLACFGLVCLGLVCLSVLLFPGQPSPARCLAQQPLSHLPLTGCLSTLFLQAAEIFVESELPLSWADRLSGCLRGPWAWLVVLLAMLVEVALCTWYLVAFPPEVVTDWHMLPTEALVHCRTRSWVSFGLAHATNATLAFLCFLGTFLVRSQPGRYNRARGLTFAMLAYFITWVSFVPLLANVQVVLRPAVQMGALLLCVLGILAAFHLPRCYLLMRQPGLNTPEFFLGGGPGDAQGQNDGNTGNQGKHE",
  "settings": "MSG with cyclamate added at 8 mM, FIG. 4A",
  "data": [
    {"smiles": "O=S(=O)(O)NC1CCCCC1", "note": "[cyclamate]", "values": [
      {"measurement": "concentration of MSG necessary to reach the EC50 threshold", "result": "reduced"}
    ]}
  ]
}
